This is an account of results in patent EP0195116A2, “Compound having antibacterial and antimycotic activities, preparation thereof and pharmaceutical compositions containing it” (ISTITUTO FARMACO BIOLOGICO RIPARI GERO S.r.l., priority 1985, dated 1986).

For the data set the following is noted: rat, in vivo, po.

As for “1-{[2-(2,4-dichlorophenyl)-2-(2,4-dichlorophenyl)methoxy]ethyl}-1-pivaloyloxymethyl-lH-imidazolium chloride [RG 024]”, the “AUC (area under curve) values, higher than those of miconazole” value is reported as “more than 2.5 times”; the “presence / detectability of the compound over time” value is on record as “still present in the 8th hour”; the “values of the main peak, higher than for miconazole” value is listed as “more than 40%”.
